Where two headings read alike, the source gives them in different places.
Assays:
P-gp [1] = tested on: P-gp
P-gp [2] = test: Western blot analysis of P-gp protein expression in drug-treated LS-180 cells; details: read-out: EC50 to up-regulate P-gp expression, 48 h, following normalization to 100%

hyperforin
EC50 (P-gp [1]): 20 nM | EC50 (P-gp [2]): 5 nM

Source: publication PMC3172709 (Journal of pharmacy & pharmaceutical sciences : a …, 2011)
